Target: Sigma non-opioid intracellular receptor 1 (Homo sapiens, UniProt Q99720)
Assay: Displacement of 3H](+)-pentazocine from human sigma1 receptor expressed in HEK293 cell membranes incubated for 120 mins by liquid scintillation counting method
Parameters: species or system Cell membrane

Sequences of proteins named here, by UniProt entry; tags and fusion partners are left off.
UniProt Q99720, whole entry: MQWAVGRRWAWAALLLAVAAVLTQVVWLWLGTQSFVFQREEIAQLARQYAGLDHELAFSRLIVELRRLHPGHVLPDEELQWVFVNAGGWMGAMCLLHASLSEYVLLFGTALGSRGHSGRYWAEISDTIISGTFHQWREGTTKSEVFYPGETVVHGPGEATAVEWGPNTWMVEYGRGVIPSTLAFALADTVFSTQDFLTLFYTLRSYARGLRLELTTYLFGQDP

## C[C@H]1OC2(CCN(CCc3ccccc3)CC2)CN(C2CC2)C1=O
  Ki: 58 nM
